Test results published in US10022359B2, “1,9-diazaspiro undecane compounds having multimodal activity against pain” (LABORATORIOS DEL DR. ESTEVE S.A., priority 2014, dated 2018).

System: human σ1 receptor and human μ-opioid receptor
Experiment: Human σ1 receptor and human μ-opioid receptor radioligand assays (dual binding)
Design: key to the marks not given beside the values
Settings: combined class for Ki-μ ([3H]-DAMGO, transfected CHO-K1 membranes) and Ki-σ1 ([3H](+)-pentazocine, transfected HEK-293 membranes)

`c1ccc(CCN2CCC3(CC2)COCCN3CC2CC2)cc1` was tested, and the “μ and σ1 dual binding” value was “++”.

`CC(=O)Nc1ccc(CN2CCOCC23CCN(CCc2ccccc2)CC3)cc1` was tested, and the “μ and σ1 dual binding” value was “++”.

With `c1ccc(N2CCOCC23CCN(CCc2cccnc2)CC3)cc1` the “μ and σ1 dual binding” value was “++”.

With `O=C(C1CC1)N1CCOCC12CCN(CCc1ccccc1)CC2` the “μ and σ1 dual binding” value was “++”.

With `FC(F)(F)c1ccc(CCN2CCC3(CC2)COCCN3c2ccccc2)cn1` the “μ and σ1 dual binding” value was “++”.

`c1ccc(CN2CCOCC23CCN(CCc2ccncc2)CC3)cc1` was tested, and the “μ and σ1 dual binding” value was “++”.

In the case of `O=C(c1ccccc1F)N1CCOCC12CCN(CCc1ccccc1)CC2`, the “μ and σ1 dual binding” value is reported as “++”.

In the case of `O=C(Cc1ccccc1)N1CCOCC12CCN(CCc1ccccc1)CC2`, the “μ and σ1 dual binding” value is reported as “++”.

For `O=C(c1nccs1)N1CCOCC12CCN(CCc1ccccc1)CC2`, the “μ and σ1 dual binding” value was “++”.

`c1ccc(CN2CCOCC23CCN(CCc2ccccn2)CC3)cc1` was tested, and the “μ and σ1 dual binding” value was “++”.

For `O=C(c1ccccc1)N1CCOCC12CCN(Cc1ccccc1)CC2`, the “μ and σ1 dual binding” value was “++”.

For `COc1ccc(CN2CCOCC23CCN(CCc2ccccc2)CC3)cc1`, the “μ and σ1 dual binding” value was “++”.

For `c1ccc(CN2CCC3(CC2)COCCN3c2ccccc2)cc1`, the “μ and σ1 dual binding” value was “++”.

In the case of `c1ccc(N2CCOCC23CCN(CCc2ccccn2)CC3)cc1`, the “μ and σ1 dual binding” value is reported as “++”.

With `c1ccc(N2CCOCC23CCN(CCc2ccncc2)CC3)cc1` the “μ and σ1 dual binding” value was “++”.

For `O=C(CC1CC1)N1CCOCC12CCN(CCc1ccccc1)CC2`, the “μ and σ1 dual binding” value was “++”.
